Molecular target: AD tau (Homo sapiens, UniProt P10636)
Conditions: AD brain homogenates preincubated with counterion alone

The chains behind the UniProt entries cited, without tags or fusion partners. Residues count along the entry.
UniProt P10636, 623-695 limits assumed: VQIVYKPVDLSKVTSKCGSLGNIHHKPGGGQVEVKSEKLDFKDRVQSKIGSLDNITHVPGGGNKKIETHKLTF

Structure (SMILES): OCCN(CCO)CCO
- Inhibitory activity of counterions toward tau seeding: neither TEA nor Ca(OH)2 exhibited inhibitory activity

Source: paper PMC11756387, “Improving the solubility of pseudo-hydrophobic chemicals through co-crystal formulation” (PNAS Nexus, 2025)
